Biological target: Casein kinase I isoform epsilon (Homo sapiens, UniProt P49674)
Experiment: Kinase Assay: The kinase assay was performed in V-bottom 384-well plates. […] The reaction was incubated at room temperature for 22 hours and terminated by adding 45 ul of 35 mM EDTA to each sample. […] Compounds were dissolved at 10 mM in dimethylsulfoxide (DMSO) and evaluated at eleven concentrations. IC50 values were derived by non-linear regression analysis.

Protein sequences, listed by entry. Tags and fused reporters are not part of them. Lines headed by an entry give the natural chain unless they say otherwise; changes in a name come on top.
UniProt P49674: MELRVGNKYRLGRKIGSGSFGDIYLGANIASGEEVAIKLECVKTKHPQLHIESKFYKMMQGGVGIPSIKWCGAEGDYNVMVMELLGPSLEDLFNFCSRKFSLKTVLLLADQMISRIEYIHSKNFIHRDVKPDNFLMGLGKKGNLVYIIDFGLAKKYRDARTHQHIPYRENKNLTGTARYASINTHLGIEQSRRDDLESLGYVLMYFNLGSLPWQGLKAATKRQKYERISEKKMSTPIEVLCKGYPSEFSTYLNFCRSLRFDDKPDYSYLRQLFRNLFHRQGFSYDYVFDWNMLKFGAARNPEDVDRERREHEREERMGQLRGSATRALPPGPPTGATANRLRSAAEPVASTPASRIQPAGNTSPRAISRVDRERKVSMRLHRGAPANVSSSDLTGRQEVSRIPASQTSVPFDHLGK

Structure (SMILES) | IC50 [nM]
Cn1cc(-c2ccc3nc(NC(=O)c4cncc(-c5ccc(C#N)cc5)c4)cn3n2)c(-c2ccc(F)cc2)n1 | 23.9
Cn1cc(-c2ccc3nc(NC(=O)c4cscn4)cn3n2)c(-c2ccc(F)cc2)n1 | 23.4
